Drawing on publication PMC7723054, this text covers binding signal for 26 molecules.

Sequences and labels used below:
B1: hsa-mir-2909 (structured_RNA)
RNA: GGGAACCGAGAUCACGUUUGCGUCUUACGGUGUACGAAGUUUCAGCUUGGUCUUUCCCCUGUGGUCCCAAGCUGAAGCUUCGUGCAC
B2: hsa-mir-8080 (structured_RNA)
RNA: GGGACGAUCCUGUUCGCCUCUCAGUCUAGGUGUACGAAGUUUCAGCGCUGAGCCCUUUGAUAAGGGGGAGGUUGCUGAAGCUUCGUGCAC
B3: PARIS_ID15 (structured_RNA)
RNA: GGGAAUUCAGCGCCGGUUCCAUAGCUCGGGUGUACGAAGUUUCAGCCCAGAGGAGGCAGCAUCUGUAGGUGUCUUCACCUGCUCUGGGCUGAAGCUUCGUGCAC
B4: hsa-mir-16-1 (structured_RNA)
RNA: GGGAAGGCCAGCGUCUUGGACCCAAUAUGGUGUACGAAGUUUCAGCUUGGCGUUAAGAUUCUAAAAUUAUCUCCAGGCUGAAGCUUCGUGCAC
B5: hsa-mir-6806 (structured_RNA)
RNA: GGGAAAGAGCACGACCGCCUCCUUGAAUGGUGUACGAAGUUUCAGCCCAGGUUCCAUGUGAUGCUGAAGCUGAAGCUUCGUGCAC
B6: hsa-mir-6502 (structured_RNA)
RNA: GGGAUGUAGUGUACCCCUACACAGAGGCGGUGUACGAAGUUUCAGCUUGACCAAUCAUCUUAUUGACUAGAGCUGAAGCUUCGUGCAC
B7: hsa-mir-1973 (structured_RNA)
RNA: GGGAAUACCCGAUUAAGGGAAACCCCGUGGUGUACGAAGUUUCAGCUGGUAUCCUGACCGGCUGAAGCUUCGUGCAC
B8: hsa-mir-452 (structured_RNA)
RNA: GGGAACGAAACCGCGUGCUCUCAUGGAUGGUGUACGAAGUUUCAGCGGAAACUGAGACUUUGUAACUAUGUCUCAGUCUCAGCUGAAGCUUCGUGCAC
B9: hsa-mir-6877 (structured_RNA)
RNA: GGGAAAUGCUGGAUAGUGCAUUGAACACGGUGUACGAAGUUUCAGCGCUGCUGGUGCUCAUCUCAGCGCUGAAGCUUCGUGCAC
B10: hsa-mir-500b (structured_RNA)
RNA: GGGAAACGGCAACAGAUACCUAGUCAAAGGUGUACGAAGUUUCAGCGGGUGAGAGUGCUUUCUGAAUGCAGUGCACCCGCUGAAGCUUCGUGCAC
B11: hsa-mir-6729 (structured_RNA)
RNA: GGGAAGGUCUAACACCGGUUCAAUAGCAGGUGUACGAAGUUUCAGCCUGAGCGGCUCCAUCCCCCGGCCUGCUCAUGCUGAAGCUUCGUGCAC
B12: hsa-mir-3199-1 (structured_RNA)
RNA: GGGAAGCUAAUCGAACCGUGCAUUCAGUGGUGUACGAAGUUUCAGCAGUUUCUGGAAGUUCUGACAUUCCAGAAACUGCUGAAGCUUCGUGCAC
B13: hsa-mir-4798 (structured_RNA)
RNA: GGGAAUAGACCGUAGGCGACUUGCACCCGGUGUACGAAGUUUCAGCAAUUGGCUUUUACAAAAGACCAACUGCUGAAGCUUCGUGCAC
B14: hsa-mir-4474 (structured_RNA)
RNA: GGGAAAGCACGCUCCGUCCACGAGUUACGGUGUACGAAGUUUCAGCCACAAAUAUGGCUCUUUGUGGCUGAAGCUUCGUGCAC
B15: hsa-mir-4475 (structured_RNA)
RNA: GGGAAUGAAAAUUAAGGACGAGCCAACGGGUGUACGAAGUUUCAGCAAUGACUCAUAGUCAAGCUGAAGCUUCGUGCAC
B16: hsa-mir-1587 (structured_RNA)
RNA: GGGAACGACUCCGAAAGUUUGCAUGCCUGGUGUACGAAGUUUCAGCUGGGCAGUUCUUCUGCUGGGCUGAAGCUUCGUGCAC
B17: hsa-mir-4328 (structured_RNA)
RNA: GGGAAGAGGUCUGCGUAGAGCUGUUGGCGGUGUACGAAGUUUCAGCUUGAGAACCAGGCUGAAGCUUCGUGCAC
B18: hsa-mir-4715 (structured_RNA)
RNA: GGGAAAUGGCGUCCCCAGUGCUAACACAGGUGUACGAAGUUUCAGCGUGGCUAAUCAGCUGAUGGUGCCACGCUGAAGCUUCGUGCAC
B19: NEAT1_ParasoR_ID33 (structured_RNA)
RNA: GGGAGCGCAAUCGUUAGACCAAAAGCUCGGUGUACGAAGUUUCAGCUACAAGUUUUUGUGGCUGAAGCUUCGUGCAC
B20: hsa-mir-8084 (structured_RNA)
RNA: GGGAGGACACCUGAUGACGCCACUCUACGGUGUACGAAGUUUCAGCAGUAUGGAUUAAAUUUAUAUUUUCCUCGAUACUGCUGAAGCUUCGUGCAC
B21: hsa-mir-548p (structured_RNA)
RNA: GGGAAGUUCAUUGGACGCAGCGUUCUGGGGUGUACGAAGUUUCAGCGUCAUUACUUUCAAUAGCGCUGAAGCUUCGUGCAC
B22: hsa-mir-4266 (structured_RNA)
RNA: GGGAAGCCACUAACGUUACUUCAAGGAUGGUGUACGAAGUUUCAGCCUACUCAAGGCUAGGCUGAAGCUUCGUGCAC
B23: hsa-mir-4298 (structured_RNA)
RNA: GGGAACCCAAAGUUGGGCAGAGCAAUACGGUGUACGAAGUUUCAGCGCAGCCUUGCGCUGAAGCUUCGUGCAC
B24: hsa-mir-4671 (structured_RNA)
RNA: GGGAAUAAGGUGUAGCCUAAGACAAACAGGUGUACGAAGUUUCAGCCUAAUCUCUUAGCACUGAAGAUUAGGCUGAAGCUUCGUGCAC
B25: hsa-mir-636 (structured_RNA)
RNA: GGGAACUGACGCUAACACUGGAUGAAAUGGUGUACGAAGUUUCAGCCGCUGCCUGGAAUUAACCCCGCUGUGGCUGAAGCUUCGUGCAC
B26: hsa-mir-6078 (structured_RNA)
RNA: GGGAAGUUCUCCGCCACUGUUUCCCAGAGGUGUACGAAGUUUCAGCGUGGACAGAGGCAAAACUCUAACUUCGCUGAAGCUUCGUGCAC

This is one part of the list.

The first assay has as its target T1, LIN28A (human?, UniProt Q9H9Z2 1-209).
T1 sequence: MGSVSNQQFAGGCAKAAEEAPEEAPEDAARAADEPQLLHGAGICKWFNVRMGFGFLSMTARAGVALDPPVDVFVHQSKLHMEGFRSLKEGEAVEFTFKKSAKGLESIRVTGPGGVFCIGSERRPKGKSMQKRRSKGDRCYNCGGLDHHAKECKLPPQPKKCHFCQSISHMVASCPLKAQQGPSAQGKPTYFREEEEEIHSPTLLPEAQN
In words: FOREST: bead pull-down of RNA structure library v1, barcode microarray; U1A/LIN28A: 20 mM HEPES pH 7.5, 80 mM KCl, 20 mM NaCl, 10% glycerol, 2 mM DTT, 0.1 ug/uL BSA, 4 C; BG4/CIRBP/DHX36: 10 mM Tris-HCl pH 7.5, 100 mM KCl (or LiCl),; high values mean tight binding.
Take B1: the binding signal was -1.25 z-score.

B2: the binding signal was -1.25 z-score.

In the case of B3, the binding signal was -1.27 z-score.

Molecule B4 displayed a binding signal of -1.24 z-score.

As to B5, the binding signal was -1.26 z-score.

B6 came in with a binding signal of -1.3 z-score.

B7 had a binding signal of -1.27 z-score.

B8 returned a binding signal of -1.3 z-score.

As for B9, the binding signal is -1.24 z-score.

With B10, the binding signal is -1.32 z-score.

B11 registered a binding signal of -1.27 z-score.

Take B12: the binding signal was -1.28 z-score.

The molecule B13 showed a binding signal of -1.33 z-score.

The molecule B14 displayed a binding signal of -1.29 z-score.

For B15, the binding signal was -1.28 z-score.

As for B16, the binding signal was -1.25 z-score.

As to B17, the binding signal is -1.26 z-score.

As for B18, the binding signal is -1.29 z-score.

Consider B19, for which the binding signal was -1.26 z-score.

On to B20, for which the binding signal was -1.3 z-score.

B21 came in with a binding signal of -1.25 z-score.

Molecule B22 had a binding signal of -1.31 z-score.

For B23, the binding signal was -1.31 z-score.

Take B24: the binding signal was -1.26 z-score.

With B25, the binding signal is -1.32 z-score.

Molecule B26 yielded a binding signal of -1.24 z-score.

The target of the next assay is T2, CIRBP (Homo sapiens, UniProt Q14011 1-172).
T2 sequence: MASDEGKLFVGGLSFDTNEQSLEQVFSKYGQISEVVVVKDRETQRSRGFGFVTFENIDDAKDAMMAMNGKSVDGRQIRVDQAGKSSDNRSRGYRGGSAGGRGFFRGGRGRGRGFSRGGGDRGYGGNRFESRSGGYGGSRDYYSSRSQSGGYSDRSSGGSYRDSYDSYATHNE
Described as above.
Turning to B1, the binding signal was -0.0873 z-score.

Take B2: the binding signal was -2.61 z-score.

As to B3, the binding signal stood at 0.169 z-score.

Consider B4, for which the binding signal is -1.12 z-score.

For the molecule B5, the binding signal turned out to be 0.141 z-score.

Consider B6, for which the binding signal is -0.497 z-score.

On to B7, for which the binding signal was -0.0118 z-score.

On to B8, for which the binding signal amounted to 0.428 z-score.

For the molecule B9, the binding signal was -0.157 z-score.

Regarding B10, the binding signal was -0.791 z-score.

The molecule B11 displayed a binding signal of -0.543 z-score.

With B12, the binding signal was -0.427 z-score.

B13 registered a binding signal of 0.0288 z-score.

Consider B14, for which the binding signal is -0.623 z-score.

As to B15, the binding signal was -0.0219 z-score.

For B16, the binding signal is -1.2 z-score.

The molecule B17 had a binding signal of 0.371 z-score.

B18 showed a binding signal of -0.115 z-score.

Molecule B19 came in with a binding signal of -0.526 z-score.

Molecule B20 came in with a binding signal of -0.565 z-score.

On to B21, for which the binding signal stood at 0.338 z-score.

As to B22, the binding signal is -0.334 z-score.

The molecule B23 displayed a binding signal of -0.0898 z-score.

B24 showed a binding signal of 0.196 z-score.

B25 displayed a binding signal of -0.744 z-score.

Molecule B26 gave a binding signal of -1.13 z-score.

Another assay concerns the target T3, DHX36 (Homo sapiens, UniProt Q9H2U1 1-1008).
T3 sequence: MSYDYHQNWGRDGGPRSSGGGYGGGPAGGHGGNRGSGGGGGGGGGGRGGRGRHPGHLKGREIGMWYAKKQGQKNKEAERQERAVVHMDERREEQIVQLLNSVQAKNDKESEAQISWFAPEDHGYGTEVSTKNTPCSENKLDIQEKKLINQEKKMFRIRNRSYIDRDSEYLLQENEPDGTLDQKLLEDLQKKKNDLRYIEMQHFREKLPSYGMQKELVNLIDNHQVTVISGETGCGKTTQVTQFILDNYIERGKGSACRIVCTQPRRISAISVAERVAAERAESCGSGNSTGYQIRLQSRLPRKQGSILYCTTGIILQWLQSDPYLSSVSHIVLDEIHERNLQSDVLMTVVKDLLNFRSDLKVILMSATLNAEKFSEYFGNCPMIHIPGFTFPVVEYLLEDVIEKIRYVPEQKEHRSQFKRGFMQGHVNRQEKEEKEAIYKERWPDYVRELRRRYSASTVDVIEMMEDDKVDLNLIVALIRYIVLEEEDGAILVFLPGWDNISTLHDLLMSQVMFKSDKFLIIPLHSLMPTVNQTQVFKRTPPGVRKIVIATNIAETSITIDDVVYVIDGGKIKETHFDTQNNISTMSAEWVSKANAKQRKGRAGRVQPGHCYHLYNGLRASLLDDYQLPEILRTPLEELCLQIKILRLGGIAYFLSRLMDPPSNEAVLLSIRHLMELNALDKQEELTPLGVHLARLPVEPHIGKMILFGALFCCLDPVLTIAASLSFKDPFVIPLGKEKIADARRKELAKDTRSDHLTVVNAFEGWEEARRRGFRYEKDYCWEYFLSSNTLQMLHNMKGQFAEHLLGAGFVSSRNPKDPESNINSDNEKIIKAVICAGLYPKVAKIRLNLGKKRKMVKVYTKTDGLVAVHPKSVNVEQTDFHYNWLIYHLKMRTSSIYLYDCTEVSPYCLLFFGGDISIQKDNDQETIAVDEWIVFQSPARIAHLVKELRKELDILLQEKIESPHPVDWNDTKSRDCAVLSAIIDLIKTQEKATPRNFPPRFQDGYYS
The assay is described as above.
For B1, the binding signal was -0.952 z-score.

Turning to B2, the binding signal is -1 z-score.

B3: the binding signal is -0.303 z-score.

B4 came in with a binding signal of -0.503 z-score.

On to B5, for which the binding signal was -0.151 z-score.

As to B6, the binding signal was -1.75 z-score.

Molecule B7 had a binding signal of -1.28 z-score.

Molecule B8 had a binding signal of -0.659 z-score.

B9: the binding signal is 0.0147 z-score.

B10 registered a binding signal of 0.0802 z-score.

Take B11: the binding signal was -0.688 z-score.

Consider B12, for which the binding signal is -0.167 z-score.

Molecule B13 registered a binding signal of -0.553 z-score.

Consider B14, for which the binding signal was -0.435 z-score.

Turning to B15, the binding signal is -0.716 z-score.

B16 returned a binding signal of -1.37 z-score.

B17 yielded a binding signal of 0.013 z-score.

In the case of B18, the binding signal was -0.572 z-score.

Regarding B19, the binding signal is -1.8 z-score.

B20: the binding signal worked out at 0.419 z-score.

With B21, the binding signal is -0.588 z-score.

As for B22, the binding signal was -0.198 z-score.

As for B23, the binding signal was -0.523 z-score.

For the molecule B24, the binding signal was -0.487 z-score.

Turning to B25, the binding signal was -1.14 z-score.

Consider B26, for which the binding signal is -0.116 z-score.
